These results are taken from PubChem BioAssay AID720535 (National Center for Advancing Translational Sciences (NCATS), 2013).

This is a selection; strong and weak results do not stand in their true shares. Records with an inconclusive call do not appear. Calls of active or inactive are those of the source. Calls follow the shape of the dose curve; as a rule, active = well fitted inhibition curve with a large enough effect; inconclusive = small, poorly fitted or top-dose-only effect; inactive = flat fitted curve, though single readings scatter.
Potency is read from the fitted curve at half-maximal effect.

The experiment in a line: qHTS for Inhibitors of TGF-b: Cytotox Counterscreen for Cherry Picks. Also: nearly all actives have a fitted effect of over 70% in size. The conditions noted are these: HepG2 CAGA-GFP viability, ATP luminescence, 18 h; cells stimulated with TGF-beta, 500 pg/mL. The text has this:
TGF-b is a main component in the TGF-b signaling pathway which plays diverse roles in cellular and development pathways. TGF-b is mediated by transcription factors called "Smads". Although the Smad-dependent pathway is the primary canonical TGF-b signaling mode, TGF-b1 can also activate alternative signaling pathways, including those involving MAPK (ERK, JNK and p38). This interaction may mediate or enhance Smad-dependent responses, or can exert Smad-independent effects. The complexity of this signaling cascade allows the TGF-b superfamily to perform unique, overlapping or redundant functions. […] We aim to identify Smad3-small molecule antagonists using a quantitative high throughput screening (qHTS) approach. […]
Suspensions of trypsinized HEPG2 CAGA-GFP cells were dispensed into white, tissue culture-treated, solid 1536-well plates at 5uL/well (1000 cells/well final concentration) in DMEM medium supplemented with 1% FBS. […] Two uL of CellTiter Glo (Promega), a luminescence-based viability reagent, was dispensed, followed by a 10 minute room temperature incubation. The plates were then measured on a PerkinElmer ViewLux plate reader for luminescence (clear filter) using a 5 second exposure. The %Activity was determined from the corrected luminescence values. […] Concentration-response curves were fitted to the signals arising from the resulting luminescence. […]
(In general: qHTS replaces the single test concentration by a dilution series.)
As for `CC1=CC2OC3CC4OC(=O)C=CC=CC(=O)OCCC(C)C(O)C(=O)OCC2(CC1O)C4(C)C31CO1` (stereo unspecified), the Potency is active: 51.7 nM.
